In patent US10039761B2, “Co-crystals and pharmaceutical compositions comprising the same” (Vertex Pharmaceuticals Incorporated, priority 2013, dated 2018):

Tested on: DU4475 breast cancer line
Assay: Doxorubicin or epirubicin combination in DU4475 cells
Assay type: cell-based
Conditions: drug in combination with Compound (2)
Procedure: The cell-based experiments and assays were performed with either molecule but not always with both. Compounds (1) and (2) were generally very similar in those assays and experiments. Analysis of the combination experiments was performed using two methods: the Bliss Additivity model and the Mixtures Blend method to determine the degree of synergy, additivity, or antagonism. In the Bliss method, a matrix of Bliss scores was generated for each cell line and treatment, and a sum of the Bliss values over the range of combination concentrations tested was calculated. […] Larger average Bliss values indicate greater confidence in reporting synergy, and smaller scores indicate greater confidence in reporting antagonism. In the Mixtures Blend method combinants were added in a range of optimal ratios using design of experiment (DOE) software (DX-8 from STAT-EASE); the cells were irradiated with 2 Gy as required. Synergy was determined using statistical analysis of the data (ANOVA) to indicate linear (additivity) or statistically significant (p<0.1) non-linear (antagonism or synergy) mixes of the combinants.
Combinations of Compound (2) and doxorubicin or epirubicin (DNA intercalator) were tested against breast cancer cell lines (Tables 17 and 18), with a comparison between wild-type and mutant lines being a focus of the study. […]

With `COc1cccc2c1C(=O)c1c(O)c3c(c(O)c1C2=O)C[C@@](O)(C(=O)CO)C[C@@H]3O[C@H]1C[C@H](N)[C@H](O)[C@H](C)O1` [Doxorubicin, reference compound] the “Average Bliss score” value was 31.9.
